The values below come from article doi:10.1101/2024.11.13.623454.

Amino acid sequences for entries named in this document (tags omitted). A change or cut given only in a name is not applied to a line headed by its entry.
UniProt P02550: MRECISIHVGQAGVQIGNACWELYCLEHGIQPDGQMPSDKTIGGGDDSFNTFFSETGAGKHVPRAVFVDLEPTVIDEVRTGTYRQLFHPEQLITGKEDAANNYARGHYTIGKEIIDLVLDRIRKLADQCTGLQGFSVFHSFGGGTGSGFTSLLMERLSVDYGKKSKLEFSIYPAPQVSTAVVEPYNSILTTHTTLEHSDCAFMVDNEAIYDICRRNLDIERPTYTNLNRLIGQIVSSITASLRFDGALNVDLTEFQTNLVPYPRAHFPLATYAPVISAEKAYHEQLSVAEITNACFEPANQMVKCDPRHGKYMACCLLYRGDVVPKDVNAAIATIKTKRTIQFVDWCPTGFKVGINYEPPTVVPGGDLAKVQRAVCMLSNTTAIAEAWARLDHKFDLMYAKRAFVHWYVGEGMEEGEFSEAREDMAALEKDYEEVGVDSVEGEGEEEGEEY

In this assay the target is pre-polymerized microtubules (porcine brain tubulin, GMPCPP) (porcine) (UniProt P02550). Briefly: co-sedimentation; pre-polymerized GMPCPP microtubules and SSNA-1 construct, 20 μM each (1:1); SSNA-1 pre-sedimented and dialyzed against BRB10 (10 mM PIPES/KOH pH 6.8, 1 mM MgCl2, 1 mM EGTA); 4 min at room temperature; sedimented at 9,777g, 25 °C, 10 min; SDS-PAGE of supernatants and pellets.

The substance SSNA-1(1-96) (domain or fragment) returned a concentration of SSNA-1 bound to microtubules (of 20 µM) of 8.2 µM and a percent of SSNA-1 co-sedimented with microtubules of 41%.
Substance SSNA-1(1-97) (domain or fragment) gave a concentration of SSNA-1 bound to microtubules (of 20 µM) of 9.3 µM and a percent of SSNA-1 co-sedimented with microtubules of 46%.
The substance SSNA-1(1-100) (domain or fragment) displayed a concentration of SSNA-1 bound to microtubules (of 20 µM) of 9.9 µM and a percent of SSNA-1 co-sedimented with microtubules of 50%.
The substance SSNA-1(18-105) (domain or fragment) yielded a concentration of SSNA-1 bound to microtubules (of 20 µM) of 6 µM and a percent of SSNA-1 co-sedimented with microtubules of 30%.
Turning to SSNA-1(19-105) (domain or fragment), the concentration of SSNA-1 bound to microtubules (of 20 µM) came to 2.6 µM and the percent of SSNA-1 co-sedimented with microtubules stood at 13%.
Regarding SSNA-1(R18E/Y97E) (natural protein), the concentration of SSNA-1 bound to microtubules (of 20 µM) worked out at 2.4 µM and the percent of SSNA-1 co-sedimented with microtubules stood at 12%.
Turning to SSNA-1(Y15E/Y97E) (natural protein), the concentration of SSNA-1 bound to microtubules (of 20 µM) amounted to 5 µM and the percent of SSNA-1 co-sedimented with microtubules is 25%.
The matching figures for SSNA-1(Y97E) (natural protein): 9.5 µM and 48%.
